One test concerns the target Muscarinic acetylcholine receptor M3 (Homo sapiens, UniProt P20309).
Details: not given
The compound `CN1CCC[C@@H](OC(=O)[C@](O)(c2ccccc2)c2cccc(OCCCNC(=O)c3cccc(CNC[C@H](O)c4ccc(O)c5[nH]c(=O)ccc45)c3)c2)C1` came in with a pKi of 9.4. Compound `CN1CCC[C@@H](OC(=O)[C@](O)(c2ccccc2)c2cccc(OCCCNC(=O)c3ccc(CNC[C@H](O)c4ccc(O)c5[nH]c(=O)ccc45)c(F)c3)c2)C1.O=CO` displayed a pKi of 9.1.

In turn, `O=C(NCCCOc1cccc([C@](O)(C(=O)O[C@H]2CCN(Cc3ccccc3)C2)c2ccccc2)c1)c1ccc(CNC[C@H](O)c2ccc(O)c3[nH]c(=O)ccc23)cc1` gave a pKi of 8.5.

On to `O=C(NCCCOc1cccc([C@](O)(C(=O)OC2CCN(Cc3ccccc3)CC2)c2ccccc2)c1)c1ccc(CNC[C@H](O)c2ccc(O)c3[nH]c(=O)ccc23)cc1`, for which the pKi worked out at 9. Same read-out and setting: in the case of `O=C(NCCCOc1cccc([C@](O)(C(=O)O[C@@H]2CCN(Cc3ccccc3)C2)c2ccccc2)c1)c1ccc(CNC[C@H](O)c2ccc(O)c3[nH]c(=O)ccc23)cc1` it was 9.1. Same read-out and setting: in the case of `Cc1cc(C(=O)NCCCOc2cccc([C@](O)(C(=O)O[C@@H]3CCCN(C)C3)c3ccccc3)c2)c(C)cc1CNC[C@H](O)c1ccc(O)c2[nH]c(=O)ccc12` it was 8.9; in that of `O=C(NCCCOc1cccc([C@](O)(C(=O)O[C@H]2CCCN(Cc3ccccc3)C2)c2ccccc2)c1)c1ccc(CNC[C@H](O)c2ccc(O)c3[nH]c(=O)ccc23)cc1.O=CO`, below 7.3. As to `O=C(NCCCOc1cccc([C@](O)(C(=O)OC[C@H]2CCN(Cc3ccccc3)C2)c2ccccc2)c1)c1ccc(CNC[C@H](O)c2ccc(O)c3[nH]c(=O)ccc23)cc1`, the pKi is 9.4. `CN1CCC[C@H](OC(=O)[C@](O)(c2ccccc2)c2cccc(OCCCNC(=O)c3ccc(CNC[C@H](O)c4ccc(O)c5[nH]c(=O)ccc45)cc3)c2)C1.O=CO.O=CO` returned a pKi of 8.3. `COc1cc(C(=O)NCCCOc2cccc([C@](O)(C(=O)O[C@@H]3CCCN(C)C3)c3ccccc3)c2)c(OC)cc1CNC[C@H](O)c1ccc(O)c2[nH]c(=O)ccc12` registered a pKi of 9.5. On the same count and under the same terms, in the case of `COc1cc(CNC[C@H](O)c2ccc(O)c3[nH]c(=O)ccc23)c(Cl)cc1C(=O)NCCCOc1cccc([C@](O)(C(=O)O[C@@H]2CCCN(C)C2)c2ccccc2)c1` it was 9.8; in that of `COc1cc(C(=O)NCCCOc2cccc([C@](O)(C(=O)O[C@@H]3CCCN(C)C3)c3ccccc3)c2)c(Cl)cc1CNC[C@H](O)c1ccc(O)c2[nH]c(=O)ccc12`, 9.6; in that of `O=C(NCCCOc1cccc([C@](O)(C(=O)O[C@@H]2CCCN(Cc3ccccc3)C2)c2ccccc2)c1)c1ccc(CNC[C@H](O)c2ccc(O)c3[nH]c(=O)ccc23)cc1.O=CO`, below 7.4. Still for that read-out and setting: in the case of `CN1CCC[C@@H](OC(=O)[C@](O)(c2ccccc2)c2cccc(OCCCNC(=O)c3cnc(CNC[C@H](O)c4ccc(O)c5[nH]c(=O)ccc45)nc3)c2)C1.O=CO` it was 8.7; in that of `CN1CCC[C@@H](OC(=O)[C@](O)(c2ccccc2)c2cccc(OCCCNC(=O)c3ccc(CNC[C@H](O)c4ccc(O)c5[nH]c(=O)ccc45)nc3)c2)C1.O=CO.O=CO`, 9.1; in that of `COc1cc(C(=O)NCCCOc2cccc([C@](O)(C(=O)O[C@@H]3CCCN(C)C3)c3ccccc3)c2)ccc1CNC[C@H](O)c1ccc(O)c2[nH]c(=O)ccc12`, 9.4. Still for that read-out and setting: with `CN1CCC[C@@H](OC(=O)[C@](O)(c2ccccc2)c2cccc(OCCCNC(=O)c3ccc(CNC[C@H](O)c4ccc(O)c5[nH]c(=O)ccc45)cc3)c2)C1` the figure was 9.3. Turning to `COc1cc(C(=O)NCCCOc2cccc([C@](O)(C(=O)O[C@@H]3CCCN(C)C3)c3ccccc3)c2)c(F)cc1CNC[C@H](O)c1ccc(O)c2[nH]c(=O)ccc12`, the pKi came out at 9.8. Still for that read-out and setting: in the case of `O=C(NCCCOc1cccc([C@](O)(C(=O)OC[C@@H]2CCN(Cc3ccccc3)C2)c2ccccc2)c1)c1ccc(CNC[C@H](O)c2ccc(O)c3[nH]c(=O)ccc23)cc1` it was 9.4.

For a further test, the target named is Muscarinic acetylcholine receptor M3 (Cavia porcellus, UniProt Q8VH26). Nature of the test: Antagonist activity at M3 receptor in male albino Dunkin-Hartley guinea pig trachea assessed as inhibition of carbachol-induced smooth muscle contraction in presence of propranolol. As to conditions: strain albino Dunkin-Hartley.
Regarding `CN1CCC[C@@H](OC(=O)[C@](O)(c2ccccc2)c2cccc(OCCCNC(=O)c3ccc(CNC[C@H](O)c4ccc(O)c5[nH]c(=O)ccc45)cc3)c2)C1`, the pIC50 was determined as 9.2.

The values are drawn from ChEMBL document CHEMBL5500396, “Discovery, Multiparametric Optimization, and Solid-State Driven Identification of CHF-6550, a Novel Soft Dual Pharmacology Muscarinic Antagonist and β2 Agonist (MABA) for the Inhaled Treatment of Respiratory Diseases” (J Med Chem, 2024).
